Reference: US20050090480A1, “Use of selected amino acid-zinc complexes as anti-malarials” (Council of Scientific & Industrial Research, priority 2003, published 2005)

Tested on: RBCs
Assay: Effect on host cell (RBCs) in parasite cultures

Zinc complex of L-proline [PIZ2]
effect on the host cell: No effect
